## Measured affinities in a library of Ab-14 heavy chain variants

Target: peptide PDVDLGDISGINAS, taken from heptad repeat 2 (HR2) of SARS-CoV-2 spike.

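The parent was found by panning a naive human phage display library on the peptide. The variants were designed computationally from a first round of random CDR variants and then made and measured. Several design methods are mixed in this list. The scFvs were displayed on barcoded MATa yeast, the peptide on MATalpha yeast. The frequency of each diploid, read from paired DNA barcodes, reflects how well the two displayed proteins bind. Each replicate has its own calibration line, from reference interactions of the BCL2 family. Each pool was mated in six replicate cultures.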

Parent: Ab-14, a human scFv built as VH, the linker GGGGSGGGGSGGGGS, VL. Only the CDRs of the heavy chain vary.
VH: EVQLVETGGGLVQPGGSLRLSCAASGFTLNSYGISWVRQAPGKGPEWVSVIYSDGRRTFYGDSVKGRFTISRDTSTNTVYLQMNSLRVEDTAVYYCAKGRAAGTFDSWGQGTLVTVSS
VL: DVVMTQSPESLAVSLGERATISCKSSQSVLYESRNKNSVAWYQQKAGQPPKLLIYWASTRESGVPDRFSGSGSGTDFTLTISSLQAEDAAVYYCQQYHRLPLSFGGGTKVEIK

The parent's heavy chain CDRs are GFTLNSYGIS, VIYSDGRRTFYGDSVK, GRAAGTFDS; each variant's own CDRs replace them letter for letter. Scale: log10 of Kd in nM, estimated from mating counts; low values are strong binders. The mean shown is taken over the replicates in which the pair was detected. Where no diploid with the target was found in any replicate, the entry reads "not detected": below detection, most likely a poor binder, though not proof of it. A sequence measured in both rounds can read differently, since the two assays cover different ranges.

mean, log10 nM | seen in | CDR-H1 | CDR-H2 | CDR-H3
not detected | 0/6 | GFTLNSYGIS | VIYSDGLRTEYGDSVK | GRAHGTFDS
0.03 | 6/6 | GFSLNNYGIS | VIYSDGRRTFYGDSVK | GRVAGTFDT
not detected | 0/6 | GFTLNSYGIS | VIYSDGRRTYYGDSVK | TRDAGTFLS
0.58 | 6/6 | GFNLNSYGIS | VIYSDGRRTFYGDDVK | GRTAGTFDS
not detected | 0/6 | GFMLNSYGIS | VIYSDGRRTFYGDSVR | GRAAVTFDS
not detected | 0/6 | GFTLNDYGIS | VIYSDGRRTFYGDSVK | GRAAGTFWI
-0.17 | 6/6 | GFDLEEYGIS | VIYADGMRTAYADSVK | GNNAGTFDI
0.76 | 6/6 | GEDMQEYGIS | VIYADGLRAAYSDNFK | GHLGGTFDM
not detected | 0/6 | GETLNEYGIS | VIYSDGERTFYGDSVK | GRAAATFDS
1.61 | 5/6 | GFTLNTYGIS | VIYSDGRRTFYSDSVK | GTAAGTFDS
0.40 | 4/6 | GFDLNSYGIS | VIYSDGKRTFYGDAVK | GRTAGTFDS
1.15 | 10/12 | GFTLNSYGIS | VIYSDGKRTFYGDSVK | GEAAGTFDS
not detected | 0/6 | HFTLNSYGIS | VIYSDGMRKFYGDNVV | GRMAGGFDK
1.87 | 1/6 | GFWLNEYGIS | VIYSDGRRTFYGDSVK | GRHAGTFDS
1.87 | 6/6 | GFSLNSYGIS | VIYSDGRRTMYDDSVK | GRQAGTFDS
not detected | 0/6 | GNTLNQYGIS | VIYSDGRRTFYGDSVK | GRAPGTFRS
not detected | 0/6 | GFDLNSYGIS | VIYSDGRRTFYGDDVK | GRAAGHFIS
0.03 | 6/6 | GFSLNSYGIS | VIYSDGRRTFYSDQVK | GQTAGTFDS
not detected | 0/6 | GFNLDEYGVS | VIYADGVRTAYVSKVK | GQEGWVLLM
-0.18 | 6/6 | PFDLNSYGIS | VIYSDGRRTFYVDSVK | GNAAGTFDS
0.88 | 6/6 | GFTLNSYGIS | VIYSDGQRTFYSDSVK | GQAAGTFDS
0.46 | 6/6 | GFTLNSYGIS | VIYSDGQRTFYDDSVK | GRLAGTFDS
1.24 | 6/6 | GFPLNSYGIS | VIYSDGRRTFYGDSVK | GRAAGTFDT
-0.69 | 6/6 | GFSLNDYGIS | VIYSDGRRTFYHDSVK | GRVAGTFDS
-0.51 | 6/6 | GFDLNEYGIS | VIYADGVRTAYTDSVK | GSNAGTFDV
not detected | 0/6 | GFTKNEYVIS | VIYSDGRRTFYGDSVK | GRAAVTFDQ
-0.52 | 6/6 | GFHLNQYGIS | VIYSDGRRTFYGDSVK | GKLAGTFDS
3.26 | 1/6 | GDDLEEYGIS | VIYADGMRTYYEDSVK | GNVNGTFFD
1.93 | 1/6 | GETLNSYGIS | VIYSDGRRTFYSDSVK | GRAAATFDS
0.66 | 6/6 | GFDLNSYGIS | VIYSDGRRTFYTDRVK | GRTAGTFDS
not detected | 0/6 | GFSLNSYGIS | VIYSDGRRTFYADDVK | GKTAGTFDS
not detected | 0/6 | GFNLNSYGIS | VIYSDGRRTFYIDKVK | GQAAGTFDS
not detected | 0/6 | GFTLNSYGIS | VIYSDGRRTFYKDSVK | ETAAGTFDS
0.85 | 6/6 | GFNLDEYGIS | VIYADGMRTAYADSVK | GEVAGTFDI
2.80 | 6/6 | GFDLNEYGIS | VIYSDGRRTFYGDSVK | GRAAGTFKS
0.16 | 6/6 | GFDLEDYGIS | VIYADGQRTAYADSVK | GENAGTFDV
not detected | 0/6 | GFDLNEQGIS | VIYADGTRTAYANTVK | GEVAGKFPD
-0.47 | 6/6 | GFDLDEYGIS | VIYADGMRTAYTDSVK | GEVAGTFDA
0.86 | 6/6 | GFSLNSYGIS | VIYSDGRRTFYGDQVK | GEAAGTFDS
0.19 | 6/6 | GFNLNSYGIS | VIYSDGRRTFYGDKVK | GREAGTFDS
0.22 | 6/6 | GFELNSYGIS | VIYSDGRRTFYADQVK | GRTAGTFDS
-0.11 | 6/6 | GFDLNEYGIS | VIYADGVRTSYADSVK | GQNAGTFDV
-0.62 | 6/6 | GFDLDEYGIS | VIYADGRRTVYADSVK | GNVAGTFDV
not detected | 0/6 | GFTLNSYGIS | VIYSDGMRTFYGDSVK | GRAAGMFDN
1.67 | 3/6 | KFTLNEYGIS | VIYSDGRRTFYADSVK | GRCAGTFDS
-0.34 | 6/6 | GFDLDEYGIS | VIYADGVRTFYADSVK | GQNAGTFDV
-0.53 | 6/6 | GFDLDEYGIS | VIYADGRRTFYQDSVK | GQNAGTFDM
0.30 | 6/6 | GFDLNSYGIS | VIYSDGQRTFYGDSVK | GRQAGTFDS
0.21 | 6/6 | GFDLNEYGIS | VIYADGKRTAYSDSVK | GEIAGTFDQ
not detected | 0/6 | GFTLNSYGIS | VIYSDGMRTFYSDQVK | GKTAGTFDS
not detected | 0/6 | GFSLDEYGIS | VIYADGTRTFVATSVK | GGLVAYFDQ
not detected | 0/6 | GFDINEYGIS | VIFADGMRTAYLNDVK | GQMAGLFIM
0.83 | 5/6 | GFTLNDYGIS | VIYSDGRRTFYGDSVK | GRAAGTFMS
1.69 | 5/6 | GFTLQSYGIS | VIYSDGRRTFYGDSVR | GQAAGTFDS
1.13 | 5/6 | GFTLDSYGIS | VIYSDGKRTFYADSVK | GRAAGTFDS
-0.42 | 6/6 | GFDLNEYGIS | VIYADGRRTAYIDSVK | GNVAGTFDQ
-0.93 | 6/6 | GFDLNEYGIS | VIYADGQRTFYADSVK | GNTAGTFDS
not detected | 0/6 | GFTVNSYGIS | VIYSDGRRTFYADSVK | GQAAGEFSS
not detected | 0/6 | GFDVEKYGIS | VIYADGYRSAYTSNVK | GGEAGTFHV
not detected | 0/6 | GFELNDYGIS | VIYSDGRRTFYGDSVK | GRCAGTFDS
-0.14 | 6/6 | GFDLDEYGIS | VIYADGVRTAYADSVK | GNVAGTFDI
not detected | 0/6 | GFDLSEYGIS | VIYADGQRANYVSNVK | GEQAGGFVL
not detected | 0/6 | GFTLNEYGIS | VIYSDGRRTFYDDSVK | GRAAVTFDQ
0.74 | 8/12 | GFTLNSYGIS | VIYADGRRTFYGDSVK | GRAAGTFDM
1.77 | 4/6 | GFHLNSYGIS | VIYSDGRRTFYGDSVK | GRVAGTFDS

Picked from the list: the 4 lowest averages where every replicate gave a value.

CDR-H1,CDR-H2,CDR-H3,"mean, log10 nM",seen in
GFDLNEYGIS,VIYADGQRTFYADSVK,GNTAGTFDS,-0.93,6/6
GFSLNDYGIS,VIYSDGRRTFYHDSVK,GRVAGTFDS,-0.69,6/6
GFDLDEYGIS,VIYADGRRTVYADSVK,GNVAGTFDV,-0.62,6/6
GFDLDEYGIS,VIYADGRRTFYQDSVK,GQNAGTFDM,-0.53,6/6

The authors' rule: three or more of the six replicates give a measured affinity, fewer mean a poor binder. As a blank, each scFv also met three strains without target: over all heavy chain designs, 1% of these pairings were detected, typically at 2.08 and seldom below 0.84. Where one sequence has several entries in the source, the replicates are pooled.

From the AlphaSeq antibody data of Li et al. 2023 (doi:10.1038/s41467-023-39022-2), copy in the FLAb collection.